{"source": "patent US7883707B2", "about": "“Induction of antigen specific immunnologic tolerance” (priority 2002, dated 2011)", "molecules": {"B1": {"name": "ITI of iduronidase: intrathymic injection of iduronidase at 1 mg/kg, without immunosuppressive drugs (protein, UniProt P35475 28-653, looked up)", "Alpha-L-iduronidase": "APHLVHVDAARALWPLRRFWRSTGFCPPLPHSQADQYVLSWDQQLNLAYVGAVPHRGIKQVRTHWLLELVTTRGSTGRGLSYNFTHLDGYLDLLRENQLLPGFELMGSASGHFTDFEDKQQVFEWKDLVSSLARRYIGRYGLAHVSKWNFETWNEPDHHDFDNVSMTMQGFLNYYDACSEGLRAASPALRLGGPGDSFHTPPRSPLSWGLLRHCHDGTNFFTGEAGVRLDYISLHRKGARSSISILEQEKVVAQQIRQLFPKFADTPIYNDEADPLVGWSLPQPWRADVTYAAMVVKVIAQHQNLLLANTTSAFPYALLSNDNAFLSYHPHPFAQRTLTARFQVNNTRPPHVQLLRKPVLTAMGLLALLDEEQLWAEVSQAGTVLDSNHTVGVLASAHRPQGPADAWRAAVLIYASDDTRAHPNRSVAVTLRLRGVPPGPGLVYVTRYLDNGLCSPDGEWRRLGRPVFPTAEQFRRMRAAEDPVAAAPRPLPAGGRLTLRPALRLPSLLLVHVCARPEKPPGQVTRLRALPLTQGQLVLVWSDEHVGSKCLWTYEIQFSQDGKAYTPVSRKPSTFNLFVFSPDTGAVSGSYRVRALDYWARPGPFSDPVPYLEVPVPRGPPSPGNP"}}, "test_system": "antibody titer to iduronidase", "assay": "ELISA antibody titer to iduronidase in canines on weekly iduronidase infusions, with or without tolerance regimens", "conditions": "early canines, FIG. 5", "data": [{"molecule": "B1", "values": [{"measurement": "titer by 7 weeks", "result": "exceeded 20"}]}]}
